Results as given in patent publication US20150258192A1, “COMPOSITIONS AND METHODS FOR PREVENTING OR TREATING CHRONIC LUNG ALLOGRAFT DYSFUNCTION (CLAD) AND IDIOPATHIC PULMONARY FIBROSIS (IPF)” (priority 2014, published 2015).

Chains of the proteins cited; added tags and fusions are not shown. Lines headed by an entry give the natural chain unless they say otherwise; changes in a name come on top.
UniProt Q8NG66: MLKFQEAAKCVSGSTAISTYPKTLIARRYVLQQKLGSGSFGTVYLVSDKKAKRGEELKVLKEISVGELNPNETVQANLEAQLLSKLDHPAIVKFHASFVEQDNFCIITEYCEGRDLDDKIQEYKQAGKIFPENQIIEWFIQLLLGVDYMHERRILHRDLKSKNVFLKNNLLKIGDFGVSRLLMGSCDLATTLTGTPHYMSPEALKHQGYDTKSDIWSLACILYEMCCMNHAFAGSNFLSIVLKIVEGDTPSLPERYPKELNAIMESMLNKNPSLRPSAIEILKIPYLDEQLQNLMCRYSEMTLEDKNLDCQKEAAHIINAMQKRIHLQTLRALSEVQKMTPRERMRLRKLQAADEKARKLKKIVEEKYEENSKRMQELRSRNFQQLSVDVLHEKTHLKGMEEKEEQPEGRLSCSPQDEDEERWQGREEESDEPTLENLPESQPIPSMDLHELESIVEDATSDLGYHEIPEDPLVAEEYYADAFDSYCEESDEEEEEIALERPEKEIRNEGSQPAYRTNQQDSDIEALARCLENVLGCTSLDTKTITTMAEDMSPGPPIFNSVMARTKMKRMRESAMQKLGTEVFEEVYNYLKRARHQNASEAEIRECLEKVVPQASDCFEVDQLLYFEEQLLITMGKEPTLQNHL
UniProt O75116: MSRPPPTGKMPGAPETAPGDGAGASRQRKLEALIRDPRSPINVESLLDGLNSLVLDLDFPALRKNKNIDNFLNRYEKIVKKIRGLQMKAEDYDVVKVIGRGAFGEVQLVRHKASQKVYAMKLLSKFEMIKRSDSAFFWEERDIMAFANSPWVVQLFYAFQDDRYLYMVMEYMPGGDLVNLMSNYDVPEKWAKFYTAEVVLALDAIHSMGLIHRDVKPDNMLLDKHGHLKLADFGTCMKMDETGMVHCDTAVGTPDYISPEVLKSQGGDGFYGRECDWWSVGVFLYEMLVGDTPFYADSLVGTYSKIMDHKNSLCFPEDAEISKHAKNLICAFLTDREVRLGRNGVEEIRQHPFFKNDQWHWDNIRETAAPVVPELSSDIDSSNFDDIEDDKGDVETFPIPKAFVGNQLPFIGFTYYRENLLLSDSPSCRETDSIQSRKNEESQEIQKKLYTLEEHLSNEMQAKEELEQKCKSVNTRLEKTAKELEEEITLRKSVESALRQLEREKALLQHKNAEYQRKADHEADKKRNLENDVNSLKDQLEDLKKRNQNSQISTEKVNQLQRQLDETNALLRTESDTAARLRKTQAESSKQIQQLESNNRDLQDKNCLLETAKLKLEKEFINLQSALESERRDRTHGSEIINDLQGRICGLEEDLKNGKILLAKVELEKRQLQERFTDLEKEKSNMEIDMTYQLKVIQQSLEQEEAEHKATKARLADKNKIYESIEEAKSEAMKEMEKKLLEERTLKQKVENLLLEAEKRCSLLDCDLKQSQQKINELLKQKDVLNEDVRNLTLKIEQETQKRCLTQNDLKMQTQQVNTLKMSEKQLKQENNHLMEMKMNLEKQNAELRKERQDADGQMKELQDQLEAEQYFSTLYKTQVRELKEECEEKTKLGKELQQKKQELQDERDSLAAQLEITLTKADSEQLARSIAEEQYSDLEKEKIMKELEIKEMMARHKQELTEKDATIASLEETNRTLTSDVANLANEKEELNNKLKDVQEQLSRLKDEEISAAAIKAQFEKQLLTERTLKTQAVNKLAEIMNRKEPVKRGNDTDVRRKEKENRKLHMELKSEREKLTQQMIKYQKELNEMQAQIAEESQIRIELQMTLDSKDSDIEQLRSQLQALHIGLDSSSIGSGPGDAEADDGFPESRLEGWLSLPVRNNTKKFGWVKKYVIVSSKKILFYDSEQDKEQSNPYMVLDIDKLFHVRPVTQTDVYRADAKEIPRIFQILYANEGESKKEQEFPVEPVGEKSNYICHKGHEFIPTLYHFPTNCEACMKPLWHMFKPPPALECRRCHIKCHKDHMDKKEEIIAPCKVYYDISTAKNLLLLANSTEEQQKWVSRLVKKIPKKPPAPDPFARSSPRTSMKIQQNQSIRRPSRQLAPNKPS
UniProt P07948: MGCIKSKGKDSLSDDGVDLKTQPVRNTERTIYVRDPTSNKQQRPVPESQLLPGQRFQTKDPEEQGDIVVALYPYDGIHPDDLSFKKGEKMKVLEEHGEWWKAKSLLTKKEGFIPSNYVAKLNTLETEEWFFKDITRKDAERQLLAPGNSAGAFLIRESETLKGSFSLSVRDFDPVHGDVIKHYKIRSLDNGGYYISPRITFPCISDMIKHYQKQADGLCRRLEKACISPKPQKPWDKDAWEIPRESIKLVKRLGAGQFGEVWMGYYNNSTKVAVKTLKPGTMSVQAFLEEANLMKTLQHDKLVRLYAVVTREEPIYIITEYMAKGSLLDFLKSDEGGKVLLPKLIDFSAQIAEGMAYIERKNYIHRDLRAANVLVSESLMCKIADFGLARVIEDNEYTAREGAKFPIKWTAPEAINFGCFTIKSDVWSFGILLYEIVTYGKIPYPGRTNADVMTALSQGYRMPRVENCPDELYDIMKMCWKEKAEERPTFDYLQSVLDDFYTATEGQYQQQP
UniProt Q9Y6E0: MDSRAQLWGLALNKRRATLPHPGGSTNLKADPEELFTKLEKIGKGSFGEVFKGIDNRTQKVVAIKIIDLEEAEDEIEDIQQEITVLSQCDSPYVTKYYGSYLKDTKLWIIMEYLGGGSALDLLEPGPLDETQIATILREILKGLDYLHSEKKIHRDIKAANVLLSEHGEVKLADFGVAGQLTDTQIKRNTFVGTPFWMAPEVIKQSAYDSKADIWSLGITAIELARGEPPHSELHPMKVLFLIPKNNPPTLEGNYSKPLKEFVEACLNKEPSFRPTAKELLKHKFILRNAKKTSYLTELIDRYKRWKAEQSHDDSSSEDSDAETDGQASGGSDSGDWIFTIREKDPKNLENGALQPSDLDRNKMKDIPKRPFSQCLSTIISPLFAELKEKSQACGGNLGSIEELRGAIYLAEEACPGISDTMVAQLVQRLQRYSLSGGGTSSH
UniProt Q9UIK4: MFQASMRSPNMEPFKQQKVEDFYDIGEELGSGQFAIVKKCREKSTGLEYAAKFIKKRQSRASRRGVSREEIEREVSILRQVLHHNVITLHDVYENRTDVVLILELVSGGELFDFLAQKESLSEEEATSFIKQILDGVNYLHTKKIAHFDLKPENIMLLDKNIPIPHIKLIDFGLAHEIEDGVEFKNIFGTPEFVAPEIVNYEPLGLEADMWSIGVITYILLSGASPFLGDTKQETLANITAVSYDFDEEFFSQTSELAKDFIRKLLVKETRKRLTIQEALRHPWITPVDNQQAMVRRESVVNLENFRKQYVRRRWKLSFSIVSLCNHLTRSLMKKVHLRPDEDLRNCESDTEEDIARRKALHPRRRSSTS
UniProt O75676: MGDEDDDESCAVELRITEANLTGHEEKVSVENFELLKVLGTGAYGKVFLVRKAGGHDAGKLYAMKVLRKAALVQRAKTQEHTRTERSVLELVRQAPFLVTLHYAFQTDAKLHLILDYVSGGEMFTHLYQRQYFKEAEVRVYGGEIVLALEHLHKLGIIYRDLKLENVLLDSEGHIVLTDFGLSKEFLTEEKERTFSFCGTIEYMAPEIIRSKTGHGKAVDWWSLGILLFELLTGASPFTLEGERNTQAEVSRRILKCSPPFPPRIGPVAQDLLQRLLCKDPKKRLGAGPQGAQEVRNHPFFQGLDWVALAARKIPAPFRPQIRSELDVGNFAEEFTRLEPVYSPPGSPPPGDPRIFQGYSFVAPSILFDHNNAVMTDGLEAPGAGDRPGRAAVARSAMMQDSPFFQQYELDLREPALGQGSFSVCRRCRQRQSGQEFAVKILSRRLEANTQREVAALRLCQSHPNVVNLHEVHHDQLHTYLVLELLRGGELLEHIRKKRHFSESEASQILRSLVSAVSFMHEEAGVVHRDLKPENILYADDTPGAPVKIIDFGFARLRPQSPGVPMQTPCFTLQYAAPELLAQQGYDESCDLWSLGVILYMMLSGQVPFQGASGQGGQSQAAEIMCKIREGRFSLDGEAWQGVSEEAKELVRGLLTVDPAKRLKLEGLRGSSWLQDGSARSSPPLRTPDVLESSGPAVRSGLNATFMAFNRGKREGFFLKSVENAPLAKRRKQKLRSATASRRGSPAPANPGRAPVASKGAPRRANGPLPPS
UniProt P50613: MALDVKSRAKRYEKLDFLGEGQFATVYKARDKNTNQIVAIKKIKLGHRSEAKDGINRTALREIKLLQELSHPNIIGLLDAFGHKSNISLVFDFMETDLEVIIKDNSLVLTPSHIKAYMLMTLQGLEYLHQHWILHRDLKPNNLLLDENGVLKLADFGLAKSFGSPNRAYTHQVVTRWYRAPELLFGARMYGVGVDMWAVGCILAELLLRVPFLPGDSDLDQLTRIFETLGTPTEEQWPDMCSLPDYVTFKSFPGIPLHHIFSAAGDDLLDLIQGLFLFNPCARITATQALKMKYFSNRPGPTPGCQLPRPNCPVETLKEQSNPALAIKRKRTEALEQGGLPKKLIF
UniProt P53778: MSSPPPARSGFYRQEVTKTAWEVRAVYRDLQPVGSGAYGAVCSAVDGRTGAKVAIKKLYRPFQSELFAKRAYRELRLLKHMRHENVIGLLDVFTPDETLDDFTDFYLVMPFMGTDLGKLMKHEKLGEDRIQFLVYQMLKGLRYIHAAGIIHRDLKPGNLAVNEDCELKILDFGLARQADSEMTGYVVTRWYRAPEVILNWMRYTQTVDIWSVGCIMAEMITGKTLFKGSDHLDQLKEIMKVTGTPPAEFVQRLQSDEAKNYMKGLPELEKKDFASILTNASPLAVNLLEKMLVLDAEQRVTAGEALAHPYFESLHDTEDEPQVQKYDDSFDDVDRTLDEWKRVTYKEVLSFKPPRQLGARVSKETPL
UniProt Q8WTQ7: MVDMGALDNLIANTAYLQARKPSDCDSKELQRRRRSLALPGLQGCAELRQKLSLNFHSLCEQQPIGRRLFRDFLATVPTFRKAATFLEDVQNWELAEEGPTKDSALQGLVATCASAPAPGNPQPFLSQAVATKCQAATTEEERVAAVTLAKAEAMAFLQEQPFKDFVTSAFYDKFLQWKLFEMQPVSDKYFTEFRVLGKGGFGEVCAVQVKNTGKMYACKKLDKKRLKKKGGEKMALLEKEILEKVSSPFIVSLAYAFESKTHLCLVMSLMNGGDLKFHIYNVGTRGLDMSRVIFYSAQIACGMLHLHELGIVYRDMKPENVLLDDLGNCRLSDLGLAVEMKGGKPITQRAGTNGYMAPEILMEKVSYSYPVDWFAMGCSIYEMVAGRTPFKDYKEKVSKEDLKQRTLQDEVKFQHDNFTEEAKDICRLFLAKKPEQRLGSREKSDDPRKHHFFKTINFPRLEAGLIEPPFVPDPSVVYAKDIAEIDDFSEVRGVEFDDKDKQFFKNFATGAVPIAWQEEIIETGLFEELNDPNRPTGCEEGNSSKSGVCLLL
UniProt P07332: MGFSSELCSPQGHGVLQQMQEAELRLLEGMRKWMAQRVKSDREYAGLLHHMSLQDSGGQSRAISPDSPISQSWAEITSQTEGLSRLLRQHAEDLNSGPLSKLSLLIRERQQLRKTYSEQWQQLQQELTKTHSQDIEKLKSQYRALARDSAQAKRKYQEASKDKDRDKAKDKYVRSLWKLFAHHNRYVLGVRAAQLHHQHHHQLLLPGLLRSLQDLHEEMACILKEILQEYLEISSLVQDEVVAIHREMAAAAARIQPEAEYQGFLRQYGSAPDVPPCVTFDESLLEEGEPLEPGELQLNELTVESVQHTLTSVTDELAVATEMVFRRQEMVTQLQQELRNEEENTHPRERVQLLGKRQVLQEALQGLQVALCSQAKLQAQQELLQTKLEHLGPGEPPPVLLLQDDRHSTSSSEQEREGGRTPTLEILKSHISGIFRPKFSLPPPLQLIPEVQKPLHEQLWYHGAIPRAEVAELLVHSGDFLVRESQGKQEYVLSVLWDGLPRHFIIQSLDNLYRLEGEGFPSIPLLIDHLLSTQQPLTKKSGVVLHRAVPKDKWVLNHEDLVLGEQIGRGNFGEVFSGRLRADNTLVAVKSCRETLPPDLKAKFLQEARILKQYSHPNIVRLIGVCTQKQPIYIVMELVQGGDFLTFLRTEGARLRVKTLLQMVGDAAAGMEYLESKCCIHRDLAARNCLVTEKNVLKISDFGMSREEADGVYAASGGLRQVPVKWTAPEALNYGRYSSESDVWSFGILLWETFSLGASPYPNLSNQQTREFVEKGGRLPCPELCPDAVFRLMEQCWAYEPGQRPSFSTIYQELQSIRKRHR

Legend:
Experiment in all cases: Kinase Profiling Assay
Assay type in all cases: biochemical
Conditions in all cases: peptide 100 μM
LKB1(h) = biological target: T1, LKB1(h) (Homo sapiens, UniProt Q15831)
T1 construct: purchased Millipore
Method in brief: (§1)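 Measured twice per kinase, activity in presence of MK2 inhibitory peptide was calculated against a 100% activity control after radiometric phosphorylation of a cationic substrate, anionic filter capture and scintillation counting; one of 266 human kinases profiled for specificity.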

mTOR/FKBP12(h) = biological target: T2, mTOR/FKBP12(h) (Homo sapiens, UniProt P42345)
T2 construct: purchased Millipore
Method in brief: as §1

NEK11(h) = biological target: T3, NEK11(h) (Homo sapiens, UniProt Q8NG66)
T3 construct: purchased Millipore
Method in brief: as §1

Ret(V804L)(h) = Ret(V804L)(h) (Homo sapiens, UniProt P07949, V804L)
Method in brief: as §1

FGFR2(h) = FGFR2(h) (Homo sapiens, UniProt P21802)
Method in brief: as §1

Rsk2(h) = Rsk2(h) (Homo sapiens, UniProt P51812)
Method in brief: as §1

Fyn(h) = Fyn(h) (Homo sapiens, UniProt P06241)
Method in brief: as §1

IR(h) = biological target: T4, IR(h) (Homo sapiens, UniProt P06213)
T4 construct: purchased Millipore
Method in brief: as §1

Src(1-530)(h) = biological target: T5, Src(1-530)(h) (Homo sapiens, UniProt P12931)
T5 construct: Src(1-530)(h); purchased Millipore
Method in brief: as §1

Pim-3(h) = Pim-3(h) (Homo sapiens, UniProt Q86V86)
Method in brief: as §1

ASK1(h) = ASK1(h) (Homo sapiens, UniProt Q99683)
Method in brief: as §1

Flt3(h) = Flt3(h) (Homo sapiens, UniProt P36888)
Method in brief: as §1

ROCK-II(h) = ROCK-II(h) (Homo sapiens, UniProt O75116)
Method in brief: as §1

Lyn(h) = biological target: T6, Lyn(h) (Homo sapiens, UniProt P07948)
T6 construct: purchased Millipore
Method in brief: as §1

CK1γ3(h) = CK1γ3(h) (Homo sapiens, UniProt Q9Y6M4)
Method in brief: as §1

MST3(h) = biological target: T7, MST3(h) (Homo sapiens, UniProt Q9Y6E0)
T7 construct: purchased Millipore
Method in brief: as §1

DAPK2(h) = DAPK2(h) (Homo sapiens, UniProt Q9UIK4)
Method in brief: as §1

TSSK2(h) = TSSK2(h) (Homo sapiens, UniProt Q96PF2)
Method in brief: as §1

MSK2(h) = biological target: T8, MSK2(h) (Homo sapiens, UniProt O75676)
T8 construct: purchased Millipore
Method in brief: as §1

CDK7/cyclinH/MAT1(h) = CDK7/cyclinH/MAT1(h) (Homo sapiens, UniProt P50613)
Method in brief: as §1

AMPKα2(h) = AMPKα2(h) (Homo sapiens, UniProt P54646)
Method in brief: as §1

MSK1(h) = biological target: T9, MSK1(h) (Homo sapiens, UniProt O75582)
T9 construct: purchased Millipore
Method in brief: as §1

Met(h) = biological target: T10, Met(h) (Homo sapiens, UniProt P08581)
T10 construct: purchased Millipore
Method in brief: as §1

SAPK3(h) = biological target: T11, SAPK3(h) (Homo sapiens, UniProt P53778)
T11 construct: purchased Millipore
Method in brief: as §1

CDK6/cyclinD3(h) = CDK6/cyclinD3(h) (Homo sapiens, UniProt Q00534)
Method in brief: as §1

GRK7(h) = biological target: T12, GRK7(h) (Homo sapiens, UniProt Q8WTQ7)
T12 construct: purchased Millipore
Method in brief: as §1

Fes(h) = Fes(h) (Homo sapiens, UniProt P07332)
Method in brief: as §1

AMPKα1(h) = AMPKα1(h) (Homo sapiens, UniProt Q13131)
Method in brief: as §1

MAPK1(h) = biological target: T13, MAPK1(h) (Homo sapiens, UniProt P27361)
T13 construct: purchased Millipore
Method in brief: as §1

cKit(V654A)(h) = cKit(V654A)(h) (Homo sapiens, UniProt P10721, V654A)
Method in brief: as §1

SGK(h) = biological target: T14, SGK(h) (Homo sapiens, UniProt O00141)
T14 construct: purchased Millipore
T14 sequence (O00141 1-431): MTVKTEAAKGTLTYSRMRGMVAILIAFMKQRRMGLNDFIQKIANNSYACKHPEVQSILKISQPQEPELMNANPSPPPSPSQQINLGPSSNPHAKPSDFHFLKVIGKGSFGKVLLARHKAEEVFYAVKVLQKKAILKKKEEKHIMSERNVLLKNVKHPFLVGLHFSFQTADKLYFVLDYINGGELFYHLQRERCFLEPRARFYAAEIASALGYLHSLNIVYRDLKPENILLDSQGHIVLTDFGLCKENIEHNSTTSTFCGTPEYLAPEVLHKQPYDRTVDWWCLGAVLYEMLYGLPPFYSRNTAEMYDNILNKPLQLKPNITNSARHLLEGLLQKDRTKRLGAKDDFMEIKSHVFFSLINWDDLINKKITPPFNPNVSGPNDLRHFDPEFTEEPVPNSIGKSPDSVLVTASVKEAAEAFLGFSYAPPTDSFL
Method in brief: as §1

## CC(C)C[C@H](NC(=O)[C@H](C)NC(=O)[C@H](CCCCN)NC(=O)[C@H](C)NC(=O)[C@H](CCCNC(=N)N)NC(=O)[C@H](C)NC(=O)[C@H](CCC(N)=O)NC(=O)[C@H](CCCNC(=N)N)NC(=O)[C@H](C)NC(=O)[C@H](C)NC(=O)[C@H](C)NC(=O)[C@H](CCCNC(=N)N)NC(=O)[C@H](C)NC(=O)[C@@H](N)Cc1ccc(O)cc1)C(=O)N[C@@H](C)C(=O)N[C@@H](CCCNC(=N)N)C(=O)N[C@@H](CCC(N)=O)C(=O)N[C@@H](CC(C)C)C(=O)NCC(=O)N[C@H](C(=O)N[C@@H](C)C(=O)N[C@@H](C)C(=O)O)C(C)C [MMI-0100]
LKB1(h)
  % activity: 111%
mTOR/FKBP12(h)
  % activity: 117%
NEK11(h)
  % activity: 102%
Ret(V804L)(h)
  % activity: 113%
FGFR2(h)
  % activity: 49%
Rsk2(h)
  % activity: 65%
Fyn(h)
  % activity: 71%
IR(h)
  % activity: 112%
Src(1-530)(h)
  % activity: 95%
Pim-3(h)
  % activity: 98%
ASK1(h)
  % activity: 100%
Flt3(h)
  % activity: 104%
ROCK-II(h)
  % activity: 102%
Lyn(h)
  % activity: 113%
CK1γ3(h)
  % activity: 105%
MST3(h)
  % activity: 104%
DAPK2(h)
  % activity: 41%
TSSK2(h)
  % activity: 107%
MSK2(h)
  % activity: 105%
CDK7/cyclinH/MAT1(h)
  % activity: 89%
AMPKα2(h)
  % activity: 121%
MSK1(h)
  % activity: 52%
Met(h)
  % activity: 104%
SAPK3(h)
  % activity: 106%
CDK6/cyclinD3(h)
  % activity: 103%
GRK7(h)
  % activity: 111%
Fes(h)
  % activity: 44%
AMPKα1(h)
  % activity: 107%

## FAKLAARLYRKALARQLGVAA [MMI-0300]
MAPK1(h)
  % activity: 107%

## YARAAARQARAKALNRQLGVA (Mammal) [MMI-0200]
cKit(V654A)(h)
  % activity: 113%
SGK(h)
  % activity: 115%
